How the values were obtained:
[1] = test system: mouse splenocyte+NCI_N87 co-culture; test: ISAC in vitro activity, mIL6 from mouse splenocyte+NCI_N87 co-culture; assay type: cell-based; details: 24 hours
Procedure: Human PBMCs and mouse splenocytes were isolated as described above in EXAMPLE 3. On assay day, human PBMCs or mouse splenocytes were thawed in warm assay media (RPMI+10% FBS). Cells were spun down and resuspended in fresh assay buffer. 100,000 cells were added to each well of plates containing an ISAC. For ISAC preparation, a 5-fold 7-point titration from 100 nM in assay media was performed. For tumor cell preparation, NCI_N87 tumor cells were propagated in tissue culture plates until they reach 90% confluency and detached from tissue culture plates with TrypLE™ Express Enzyme (ThermoFisher). 10,000 tumor cells were added to wells containing antibody drug conjugate with human PBMCs or with mouse splenocytes. The co-culture was incubated with ISAC at 37° C.+5% CO2 for 24 hours before supernatant was harvested. hIL6 and mIL6 were quantified from the human PBMC+NCI_N87 co-culture supernatant and mouse splenocyte+NCI_N87 co-culture supernatant, respectively, using homogeneous time resolved fluorescence (Cisbio).
(§1) Trastuzumab coupled to the benchmark compound (e.g., without the cysteine-capped hemisuccinimide moiety, which can be a result of in vivo metabolism and constitute an active metabolite upon cleavage from the targeting moiety) was used as a positive control in this study. The following “activated” version of the benchmark was used for coupling to Trastuzumab: […]

RAW-Blue™ cells = test: ISAC reporter gene assay, RAW-Blue cells co-cultured with NCI_N87, SEAP readout; assay type: cell-based, mouse; details: RAW-Blue+NCI_N87 co-culture, 48 hours
Procedure: The in vitro activity of ISACs was also assessed in a reporter gene assay using mouse RAW-Blue™ cells (Invivogen, San Diego, CA). Briefly, RAW-Blue™ cells were maintained in growth media recommended by the vendor until assay day. On assay day, RAW-Blue™ cells were scraped from tissue culture flasks and resuspended in assay media (DMEM+10% FBS). 100,000 RAW-Blue™ cells were added to each well of plates containing an ISAC. For ISAC preparation, a 5-fold 7-point titration from 100 nM in assay media was performed. For tumor cell preparation, NCI_N87 tumor cells were propagated in tissue culture plates until they reach 90% confluency and detached from tissue culture plates with TrypLE™ Express Enzyme (ThermoFisher). 100,000 tumor cells were added to wells containing ISAC with RAW-Blue™ cells. The co-culture was incubated with ISAC at 37° C.+5% CO2 for 48 hours before 10 μl supernatant was harvested. To the supernatant, 90 ul QUANTI-Blue™ Solution (Invivogen, San Diego, CA) was added and the amount of secreted embryonic alkaline phosphatase (SEAP) was determined by measuring absorbance (620 nm) using a Synergy™ H1 microplate reader.
as §1

[2] = test system: human PBMC+NCI_N87 co-culture; test: ISAC in vitro activity, hIL6 from human PBMC+NCI_N87 co-culture; assay type: cell-based; details: 24 hours

| Substance | EC50 [1] [nM] | EC50 (RAW-Blue™ cells) [nM] | mIL6 EC50 (pM) [1] | hIL6 EC50 (pM) [2] | RAW-Blue EC50 (pM) (RAW-Blue™ cells) |
| --- | --- | --- | --- | --- | --- |
| Tras-MC-Compound 100 | 0.161 | 0.298 | – | – | – |
| Tras-MT-Compound 100 | 0.0866 | 0.52 | – | – | – |
| Tras-MT-VC-PABC-Compound 100 | – | 0.249 | inactive | – | – |
| Tras-MT-VC-PABC-Compound 105 | 0.626 | 0.23 | – | – | – |
| Tras-MT-VC-PABC-Compound 106 | 0.131 | 0.05 | – | – | – |
| Tras-MT-VC-PABC-Compound 110 | 0.163 | 0.229 | – | – | – |
| Tras-MT-VC-PABC-Compound 111 | – | 0.0659 | inactive | – | – |
| Tras-MT-VC-PABC-Compound 112 | – | 0.295 | inactive | – | – |
| Tras-MT-VC-PABC-Compound 132 | 0.131 | 0.359 | – | – | – |
| Tras-MT-VC-PABC-Compound 139 | 0.155 | 0.63 | – | – | – |
| Tras-MT-VC-PABC-Compound 140 | 0.0904 | 0.312 | – | – | – |
| Tras-MT-VC-PABC-Compound 144 | – | 0.441 | inactive | – | – |
| Tras-MT-VC-PABC-Compound 145 | 0.0364 | 0.162 | – | inactive | – |
| Tras-MT-VC-PABC-Compound 150 | – | 0.159 | inactive | – | – |
| Tras-MT-VC-PABC-Compound 152 | – | 0.251 | inactive | – | – |
| Tras-MT-VC-PABC-Compound 166 | – | 7.78 | inactive | – | – |
| Tras-MT-VC-PABC-Compound 169 | 2.56 | – | – | – | – |
| Tras-MT-VC-PABC-Compound 172 | 0.471 | – | – | – | – |
| Tras-MT-VC-PABC-Compound 173 | 0.193 | – | – | – | – |
| Tras-MT-VC-PABC-Compound 180 | 2.62 | – | – | – | – |
| Tras-MT-VC-PABC-Compound 187 | – | – | inactive | inactive | Inactive |
| Tras-MT-VC-PABC-Compound 188 | – | 0.472 | inactive | inactive | – |
| Tras-MT-VK-PABC-Compound 100 | – | 0.129 | inactive | – | – |
| Tras-MT-VK-PABC-Compound 107 | – | – | inactive | inactive | inactive |
| Tras-MT-VK-PABC-Compound 108 | – | – | inactive | inactive | Inactive |
| Tras-MT-VK-PABC-Compound 159 | 7.66 | – | – | – | – |
| Tras-MT-VK-PABC-Compound 161 | 3.87 | – | – | – | – |
| Tras-MT-VK-PABC-Compound 167 | 3.93 | – | – | – | – |
| Tras-MT-VK-PABC-Compound 182 | 0.82 | – | – | – | – |

Reference: patent publication US20250170266A1 (ZYMEWORKS BC INC., priority 2022, published 2025)
